The numbers were not newly measured in patent US20250352536A1, “NEURORESTORATION COMPOSITIONS IMPLEMENTING MULTIPLE NEUROPLASTICITY INDUCING MECHANISMS OF ACTION” (Neuro-Innovators, Inc., priority 2022, published 2025), which cites them from elsewhere.

This data set deals with angiotensin II receptor type 1 (AT1) (Homo sapiens, UniProt P30556). To be noted: selectivity AT1 over AT2.

Regarding `CCCc1nc2c(C)cc(-c3nc4ccccc4n3C)cc2n1Cc1ccc(-c2ccccc2C(=O)O)cc1` [Telmisartan], the “binding affinity greater for AT1 than AT2” value is on record as 3000 times.
